Biological target: human mu opioid receptor (Homo sapiens, UniProt P35372)
Conditions: [3H]-Diprenorphine 0.5 nM, CHO-K1 membranes

The chains behind the UniProt entries cited, without tags or fusion partners. Where a name states a change or a piece, a line headed by the entry shows the natural chain unless it says otherwise.
UniProt P35372: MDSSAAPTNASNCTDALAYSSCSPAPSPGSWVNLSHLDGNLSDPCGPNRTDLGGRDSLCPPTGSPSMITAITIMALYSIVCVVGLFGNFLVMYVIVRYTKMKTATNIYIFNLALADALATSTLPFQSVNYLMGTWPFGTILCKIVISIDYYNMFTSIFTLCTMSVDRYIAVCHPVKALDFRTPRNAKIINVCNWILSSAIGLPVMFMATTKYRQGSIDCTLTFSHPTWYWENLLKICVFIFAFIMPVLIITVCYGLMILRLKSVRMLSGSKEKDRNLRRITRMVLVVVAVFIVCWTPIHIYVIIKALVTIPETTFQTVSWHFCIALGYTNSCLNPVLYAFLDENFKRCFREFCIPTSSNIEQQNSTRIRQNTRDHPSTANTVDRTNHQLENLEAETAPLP

Q: Which “pKi at the human mu opioid receptor” value does the source give for “3-endo-(8-{2-[(2-ethylbutyl)-((S)-2-hydroxypropionyl)-amino]ethyl}-8-azabicyclo[3.2.11oct-3-yl)-benzamide” here?
A: 9.7

Reference: patent publication US8518966B2, “Amidoalkyl-8-azabicyclo[3.2.1]octane compounds as mu opioid receptor antagonists” (Theravance, Inc., priority 2007, dated 2013)
